# Results: PubChem BioAssay AID1346983 (Tox21, 2019)
# Sequences of proteins named here, by UniProt entry; tags and fusion partners are left off.
# UniProt Q9R1A7, whole entry: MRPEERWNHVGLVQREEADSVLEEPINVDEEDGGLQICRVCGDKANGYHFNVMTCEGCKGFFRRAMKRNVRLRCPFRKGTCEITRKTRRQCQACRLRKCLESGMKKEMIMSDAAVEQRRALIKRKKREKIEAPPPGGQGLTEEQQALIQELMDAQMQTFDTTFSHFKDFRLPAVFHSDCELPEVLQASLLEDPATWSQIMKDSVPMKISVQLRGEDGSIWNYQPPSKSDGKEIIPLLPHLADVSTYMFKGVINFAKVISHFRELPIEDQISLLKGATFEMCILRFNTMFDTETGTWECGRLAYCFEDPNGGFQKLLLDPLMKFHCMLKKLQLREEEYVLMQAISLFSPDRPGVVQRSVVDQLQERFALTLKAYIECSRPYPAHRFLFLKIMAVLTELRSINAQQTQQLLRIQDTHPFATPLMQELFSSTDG
# This is a selection; strong and weak results do not stand in their true shares. Inconclusive results are not listed. Activity calls are given as the source filed them. Calls follow the shape of the dose curve; as a rule, active = well fitted activation curve with a large enough effect in the repeat runs; inconclusive = weak or mixed curves; inactive = no such curve, though single readings can be large or run the other way.
# Biological target: Nuclear receptor subfamily 1 group I member 2 (Rattus norvegicus) (UniProt Q9R1A7)
# Experiment: Rat pregnane X receptor (rPXR) activation by small molecules, qHTS assay; also: nearly all actives have a fitted effect of over 20% in size
# Details: rPXR luciferase reporter cells, One-Glo luminescence, 24 h; hits give high values
# Source text: National Center for Advancing Translational Sciences [NCATS] NIH Chemical Genomics Center [NCGC] U.S. Environmental Protection Agency [EPA] National Institutes of Environmental Health Sciences [NIEHS] National Toxicology Program [NTP] Assay overview: The Pregnane X receptor (PXR), a ligand activated nuclear receptor plays a critical role in the regulation of genes involved in drug metabolism and transporters. PXR binds xenobiotics and when compounds interact with PXR produces enhanced expression of CYP3A genes. In humans PXR activation and CYP3A4 induction can be problematic due to their interactions with co-medicated drugs and decrease their efficacy or increase their own metabolism. However, there are known species-specific differences with regard to PXR activation that should be taken into account when animal PXR data are extrapolated to humans. A cell based rat PXR (rPXR) assay (developed by Puracyp, Inc., CA) was used to assess the activation of rPXR.
# Assay Protocol Summary: rPXR cells were dispensed at 2,000 per well in 5uL of assay medium into white, solid-bottom 1536-well plates using a Multidrop Combi dispenser (Thermo Scientific). […] Then 5ul One-Glo assay reagent (Promega) was added to each plate by a Flying Reagent Dispenser (FRD, Aurora Discovery) and following 30 min incubation at room temperature, luciferase activity was quantified on a ViewLux plate reader (Perkin Elmer).
# % is scaled to controls: 0 for no effect and ±100 for the full control effect.
row,SMILES,max activation
1,CCC(=O)N(c1ccccc1)C1CCN(CCc2ccccc2)CC1,inactive: 0.385%
2,CN(CCCl)CCCl,inactive: -6.15%
